# Test results taken from the NIST ThermoML archive (doi:10.1021/je8000975).
# Conditions: Liquid; for speed of sound: Sing-around technique in a fixed-path interferometer
smiles,measurement,setting,value
CCCCOCCCC [dibutyl ether],mass density,293.15 K,768.468 ± 0.52 kg/m3
same,speed of sound,293.15 K,1181.8 ± 0.8 m/s
same,mass density,298.15 K,764.17 ± 0.53 kg/m3
same,speed of sound,298.15 K,1161.2 ± 0.79 m/s
same,mass density,303.15 K,759.829 ± 0.54 kg/m3
same,speed of sound,303.15 K,1142.1 ± 0.78 m/s

# ± gives the expanded uncertainty stated by the source.
